Source: patent publication US8530494B2 (priority 2008, dated 2013)
Like-named read-outs stand apart in the source and are kept apart here.

Protein sequences, listed by entry. Tags and fused reporters are not part of them.
UniProt P41145, whole entry: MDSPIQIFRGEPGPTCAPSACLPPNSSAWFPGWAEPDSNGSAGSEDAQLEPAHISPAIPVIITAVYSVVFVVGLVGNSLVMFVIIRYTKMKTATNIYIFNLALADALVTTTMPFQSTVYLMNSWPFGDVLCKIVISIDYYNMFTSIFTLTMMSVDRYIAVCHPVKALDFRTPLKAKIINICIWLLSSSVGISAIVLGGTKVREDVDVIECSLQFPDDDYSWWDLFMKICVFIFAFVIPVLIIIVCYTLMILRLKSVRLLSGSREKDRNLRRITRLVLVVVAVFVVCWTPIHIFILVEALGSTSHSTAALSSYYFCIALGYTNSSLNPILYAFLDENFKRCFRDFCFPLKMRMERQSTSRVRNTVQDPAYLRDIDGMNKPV
UniProt P35372, whole entry: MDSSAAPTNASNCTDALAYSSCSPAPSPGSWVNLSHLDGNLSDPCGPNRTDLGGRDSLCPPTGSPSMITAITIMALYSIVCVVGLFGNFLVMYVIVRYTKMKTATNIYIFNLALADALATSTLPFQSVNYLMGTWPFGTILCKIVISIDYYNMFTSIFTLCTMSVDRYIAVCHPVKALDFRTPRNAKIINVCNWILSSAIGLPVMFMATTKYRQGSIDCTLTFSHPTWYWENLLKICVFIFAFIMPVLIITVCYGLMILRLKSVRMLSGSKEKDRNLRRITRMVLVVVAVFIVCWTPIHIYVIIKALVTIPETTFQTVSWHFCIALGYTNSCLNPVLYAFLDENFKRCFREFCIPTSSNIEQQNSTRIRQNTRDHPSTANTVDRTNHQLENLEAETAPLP
UniProt P41143, whole entry: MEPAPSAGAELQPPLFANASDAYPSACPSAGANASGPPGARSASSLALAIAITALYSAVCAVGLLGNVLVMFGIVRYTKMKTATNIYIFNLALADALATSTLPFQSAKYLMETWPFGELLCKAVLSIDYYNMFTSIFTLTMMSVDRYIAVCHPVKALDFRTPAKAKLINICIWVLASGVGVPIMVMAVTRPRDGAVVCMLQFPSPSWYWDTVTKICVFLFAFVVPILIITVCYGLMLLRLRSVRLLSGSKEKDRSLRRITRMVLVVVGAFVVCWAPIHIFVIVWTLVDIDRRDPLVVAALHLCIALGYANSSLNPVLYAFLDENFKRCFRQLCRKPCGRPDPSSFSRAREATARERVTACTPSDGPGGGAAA
UniProt P41146, whole entry: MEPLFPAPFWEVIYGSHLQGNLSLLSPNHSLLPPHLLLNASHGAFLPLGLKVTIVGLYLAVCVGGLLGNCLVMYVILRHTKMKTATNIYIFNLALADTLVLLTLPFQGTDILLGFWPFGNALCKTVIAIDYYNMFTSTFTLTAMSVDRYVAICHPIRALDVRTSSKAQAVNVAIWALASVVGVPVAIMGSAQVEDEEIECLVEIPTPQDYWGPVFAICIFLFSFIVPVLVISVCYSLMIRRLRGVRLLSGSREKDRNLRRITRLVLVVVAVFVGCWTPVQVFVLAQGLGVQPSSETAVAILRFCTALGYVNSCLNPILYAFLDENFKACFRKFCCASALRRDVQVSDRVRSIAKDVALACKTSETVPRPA

Tests used:
kappa opioid receptor = kappa opioid receptor (Homo sapiens (Human), UniProt P41145); assay: κ-opioid receptor functional [35S]GTPγS binding assay; details: for EC50: read-out: GTPγS κ EC50; for GTPγS κ Emax: relative to U69,593
μ-opioid receptor = μ-opioid receptor (Homo sapiens (Human), UniProt P35372); assay: μ-opioid receptor [35S]GTPγS functional assay; details: for EC50: read-out: GTPγS μ EC50; for GTPγS μ Emax: relative to DAMGO
delta opioid receptor = delta opioid receptor (Homo sapiens (Human), UniProt P41143); assay: δ-opioid receptor functional [35S]GTPγS binding assay; details: for EC50: read-out: GTPγS δ EC50; for GTPγS δ Emax: relative to met-enkephalin
[1] = target: T1, human opioid receptor-like (ORL-1) (Homo sapiens (Human), UniProt P41146); assay: ORL-1 receptor radioligand binding assay ([3H]-nociceptin); details: for Ki: read-out: Ki ORL-1
[2] = target: T1, human opioid receptor-like (ORL-1); assay: ORL-1 receptor functional [35S]GTPγS binding assay; details: for GTPγS ORL1 Emax: relative to nociceptin; for EC50: read-out: GTPγS ORL1 EC50
gastric motility = assay: Assessment of gastric motility, charcoal meal transit; details: oral gavage

Row | SMILES | EC50 (kappa opioid receptor) [nM] | GTPγS κ Emax (kappa opioid receptor) [%] | GTPγS μ Emax (μ-opioid receptor) [%] | EC50 (delta opioid receptor) [µM] | GTPγS δ Emax (delta opioid receptor) [%] | other results
1 | COc1ccc2c3c1O[C@H]1[C@@]4(OC)CC[C@@]5(C[C@@H]4COCc4ccc(OC(F)(F)F)cc4)[C@@H](C2)N(C)CC[C@]315 | 167 | 46 |  |  |  | 
2 | COc1ccc2c3c1O[C@H]1[C@@]4(OC)CC[C@@]5(C[C@@H]4COC/C=C/c4ccccc4)[C@@H](C2)N(CC2CC2)CC[C@]315 | 103 | 63 | 0 |  |  | EC50 (μ-opioid receptor; μM): > 20 µM
3 | COc1ccc2c3c1O[C@H]1[C@@]4(OC)CC[C@@]5(C[C@@H]4COCC4CCC4)[C@@H](C2)N(C)CC[C@]315 | 49.3 | 92 |  |  |  | 
4 | COc1ccc2c3c1O[C@H]1[C@@]4(OC)CC[C@@]5(C[C@@H]4COCC4CCCCC4)[C@@H](C2)N(CC2CC2)CC[C@]315 | 0.24 | 97.33 | 28.67 | 0.0465 | 79 | EC50 (μ-opioid receptor): 0.00897 µM
5 | COc1cccc(COC[C@H]2C[C@@]34CC[C@]2(OC)[C@@H]2Oc5c(OC)ccc6c5[C@@]23CCN(C)[C@@H]4C6)c1 | 50 | 98 |  |  |  | 
6 | COc1ccc2c3c1O[C@H]1[C@@]4(OC)CC[C@@]5(C[C@@H]4COCc4ccc(-c6ccccc6)cc4)[C@@H](C2)N(CC2CC2)CC[C@]315 | 141 | 21.00 | 1.00 |  |  | EC50 (μ-opioid receptor; μM): > 20 µM; Ki ([1]; μM): > 20 µM
7 | COc1ccc2c3c1O[C@H]1[C@@]4(OC)CC[C@@]5(C[C@@H]4COCc4ccncc4)[C@@H](C2)N(C)CC[C@]315 | 222 | 79 |  |  |  | 
8 | COc1ccc2c3c1O[C@H]1[C@@]4(OC)CC[C@@]5(C[C@@H]4COCc4ccc6ccccc6c4)[C@@H](C2)N(CC2CC2)CC[C@]315 | 35.1 | 68 | 0 |  |  | EC50 (μ-opioid receptor; μM): > 20 µM
9 | COc1ccc2c3c1O[C@H]1[C@@]4(OC)CC[C@@]5(C[C@@H]4COCC4CCCCC4)[C@@H](C2)N(C)CC[C@]315 | 0.61 | 87.67 |  | 0.0463 | 83 | 
10 | COc1ccc2c3c1O[C@H]1[C@@]4(OC)CC[C@@]5(C[C@@H]4COCc4cccc(C)c4)[C@@H](C2)N(CC2CC2)CC[C@]315 | 2.32 | 81 | 31 |  |  | EC50 (μ-opioid receptor): 0.0174 µM
11 | COc1ccc2c3c1O[C@H]1[C@@]4(OC)CC[C@@]5(C[C@@H]4COCc4ccccc4C)[C@@H](C2)N(CC2CC2)CC[C@]315 | 1.28 | 88 | 53 |  |  | EC50 (μ-opioid receptor): 0.0105 µM
12 | COc1ccc2c3c1O[C@H]1[C@@]4(OC)CC[C@@]5(C[C@@H]4COc4ccccc4)[C@@H](C2)N(CC2CC2)CC[C@]315 | 11.9 | 88.25 | 3.00 | 0.199 | 73 | EC50 (μ-opioid receptor; μM): > 20 µM
13 | COc1ccc2c3c1OC1C4(OC)CCC5(CC4COCc4ccccc4)[C@@H](C2)N(C)CC[C@]315 (some centres unmarked) | 4.7 | 92 |  | 0.078 | 113 | GTPγS ORL1 Emax [2]: 46%; inhibition of gastric motility (charcoal meal transit) (gastric motility): dose-dependent inhibition of gastric motility
14 | COc1ccc2c3c1O[C@H]1[C@@]4(OC)CC[C@@]5(C[C@@H]4COCc4cccc(C)c4)[C@@H](C2)N(C)CC[C@]315 | 51.1 | 75.00 |  | 0.148 | 77 | 
15 | COc1ccc2c3c1O[C@H]1[C@@]4(OC)CC[C@@]5(C[C@@H]4COCc4ccccc4)[C@@H](C2)N(CC2CC2)CC[C@]315 | 0.18 | 117 | 27 | 0.0072 | 69 | EC50 (μ-opioid receptor): 0.0146 µM; EC50 [2]: 2720 nM; GTPγS ORL1 Emax [2]: 42%
16 | COc1ccc2c3c1O[C@H]1[C@@]4(OC)CC[C@@]5(C[C@@H]4COCc4ccc(Cl)c(Cl)c4)[C@@H](C2)N(C)CC[C@]315 | 34.7 | 73.50 |  | 0.283 | 66 | Ki [1]: 1.3 µM
17 | COc1ccc2c3c1O[C@H]1[C@@]4(OC)CC[C@@]5(C[C@@H]4COc4ccccc4)[C@@H](C2)N(C)CC[C@]315 | 442 | 75.67 |  | 0.603 | 81 | 
18 | COc1ccc2c3c1O[C@H]1[C@@]4(OC)CC[C@@]5(C[C@@H]4COCc4ccc(C(C)(C)C)cc4)[C@@H](C2)N(C)CC[C@]315 | 473 | 39.00 |  | 1.01 | 37 | 
19 | COc1ccc2c3c1O[C@H]1[C@@]4(OC)CC[C@@]5(C[C@@H]4COCc4ccc(C(F)(F)F)cc4)[C@@H](C2)N(CC2CC2)CC[C@]315 | 51.8 | 38.50 | −1.67 |  | 8 | EC50 (μ-opioid receptor; μM): > 20 µM; EC50 (delta opioid receptor; μM): > 20 µM
20 | COc1ccc2c3c1O[C@H]1[C@@]4(OC)CC[C@@]5(C[C@@H]4COCc4ccccc4C)[C@@H](C2)N(C)CC[C@]315 | 9.58 | 98 |  |  |  | 
21 | C#CCOCC1CC23CCC1(OC)C1Oc4c(OC)ccc5c4[C@@]12CCN(C)[C@@H]3C5 (some centres unmarked) | 194 | 66 |  | 1.57 | 82 | Ki ORL-1 [1]: inactive
22 | COc1ccc2c3c1O[C@H]1[C@@]4(OC)CC[C@@]5(C[C@@H]4COCc4ccc(Cl)c(Cl)c4)[C@@H](C2)N(CC2CC2)CC[C@]315 | 5.27 | 69.50 | −1.00 | 0.112 | 46 | EC50 (μ-opioid receptor; μM): > 20 µM; EC50 [2]: 3610 nM; GTPγS ORL1 Emax [2]: 23.67%
23 | COc1ccc2c3c1O[C@H]1[C@@]4(OC)CC[C@@]5(C[C@@H]4COCc4ccc6ccccc6c4)[C@@H](C2)N(C)CC[C@]315 | 442 | 75.67 |  | 0.603 | 81 | Ki ([1]; μM): > 20 µM
24 | C=CCOC[C@H]1C[C@@]23CC[C@]1(OC)[C@@H]1Oc4c(OC)ccc5c4[C@@]12CCN(CC1CC1)[C@@H]3C5 | 21 | 107 | 23 | 0.242 | 67 | EC50 (μ-opioid receptor): 1.49 µM; Ki ORL-1 [1]: inactive
25 | COc1ccc2c3c1O[C@H]1[C@@]4(OC)CC[C@@]5(C[C@@H]4COCc4cccc6ccccc46)[C@@H](C2)N(C)CC[C@]315 | 39.1 | 100 |  |  |  | 
26 | COc1ccc2c3c1O[C@H]1[C@@]4(OC)CC[C@@]5(C[C@@H]4COCc4ccc(C(C)(C)C)cc4)[C@@H](C2)N(CC2CC2)CC[C@]315 | 194 | 36 | 0 |  |  | EC50 (μ-opioid receptor; μM): > 20 µM
27 | COc1ccc2c3c1O[C@H]1[C@@]4(OC)CC[C@@]5(C[C@@H]4COCc4ccc(Cl)cc4)[C@@H](C2)N(C)CC[C@]315 | 1.53 | 42.50 |  | 1.05 | 53 | 
